This passage reports inhibition results from PubChem BioAssay AID1532 (PCMD, 2009).

This is a selection; strong and weak results do not stand in their true shares. Some of these compounds have results that are not shown, active ones among them. The source made the active and inactive calls. Rule as the data show it: active = inhibition above about 30% (passing the limit was not always enough); inconclusive = no clear call, values can overlap the other calls.

The assay relates to RmlC (dTDP-4-dehydrorhamnose 3,5-epimerase) and RmlD (dTDP-4-dehydrorhamnose reductase), coupled enzyme assay. The experiment in a line: RmlC and RmlD coupled enzyme inhibitors, primary screen, biochemical, 384-well, compound mixtures, retest (AID 1532). Particulars: 384-well mixture HTS, at 5.5 µM, active compounds read high.
For `CC(C)N1C(=O)CC2(CCN(CCOC(=O)C(O)(c3ccccc3)c3ccccc3)CC2)C1=O`, the inhibition – broadly, the relative decrease from the control value, in per cent – was inactive: -7.81%. As for `CN(C)c1cccc(C(=O)NCC2(N(C)C)CCCCC2)c1`, the inhibition is inactive: -7.81%. In the case of `O=C(OC1CN2CCC1CC2)C(CO)(c1ccccc1)c1ccccc1` (stereo not drawn), the inhibition is inactive: 10.7%.
